Assay [1] concerns the target T1, CXCR3 F131A (Homo sapiens, UniProt P49682, F131A).
T1 construct: expressed in transfected cells; host or cells: murine pre-B cell line L1.2, transient transfection
T1 sequence (P49682 1-368 F131A): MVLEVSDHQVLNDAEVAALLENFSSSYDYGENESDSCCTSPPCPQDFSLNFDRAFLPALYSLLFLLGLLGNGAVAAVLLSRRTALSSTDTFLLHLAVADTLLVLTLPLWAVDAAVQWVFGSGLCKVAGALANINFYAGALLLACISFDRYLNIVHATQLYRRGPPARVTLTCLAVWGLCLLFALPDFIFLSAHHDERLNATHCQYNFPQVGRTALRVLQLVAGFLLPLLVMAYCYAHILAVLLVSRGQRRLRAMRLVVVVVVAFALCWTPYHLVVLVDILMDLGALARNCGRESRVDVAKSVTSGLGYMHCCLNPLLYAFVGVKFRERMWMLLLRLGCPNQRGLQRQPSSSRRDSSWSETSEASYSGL
Briefly: Whole-cell 125I-CXCL11 binding assay, L1.2 transfectants. As to conditions: 0.1 nM 125I-CXCL11, read-out: IC50 ligand binding (mean ± SEM). How it is done: (§1) A previously described pcDNA3 plasmid containing human wild type (WT) CXCR3 cDNA with an HA epitope tag encoded at the N terminus (Meiser et al., [2008]) was used as a template for the generation of point mutants by PCR using the QuikChange II site-directed mutagenesis kit (Stratagene, Amsterdam, the Netherlands). All constructs were verified by DNA sequencing (Eurofins MWG Operon, Ebersberg, Germany) before use. L1.2 cells were transiently transfected by electroporation with 1 μg of vector DNA/10^6 cells at 330V, 975μF and incubated overnight in medium supplemented with 10 mM of sodium butyrate to enhance gene expression.
(§2) Whole-cell binding assays on transiently transfected L1.2 cells were performed as described previously (Vaidehi et al., [2009]) using 0.1 nM ^125I-CXCL11 (Perkin Elmer) and increasing concentrations of unlabeled CXCL11 or antagonist. Cell-associated radioactivity was counted in a Canberra Packard Cobra 5010 gamma counter (Canberra Packard, Pangebourne, UK). Curve fitting and subsequent data analysis was carried out using the program PRISM (GraphPad Software, Inc., San Diego, CA, USA) and IC50 values were obtained by non-linear regression analysis. In all experiments, each data point was assayed in duplicate, with each individual experiment repeated three times. Background binding levels obtained in the presence of a 1000–3000 molar excess of unlabelled chemokine were subtracted from each data point and data are presented as the percentage of counts obtained in the absence of competing ligand. KD values and the number of binding sites per cell were calculated from homologous binding curves prepared in Graph Pad Prism (La Jolla, CA, USA) as previously described (Nedjai et al., [2011]).

The target in assay [2] is T2, CXCR3 I279A (Homo sapiens, UniProt P49682, I279A).
T2 construct: expressed in transfected cells; host or cells: murine pre-B cell line L1.2, transient transfection
T2 sequence (P49682 1-368 I279A): T1 sequence (P49682 1-368 F131A) with A131F, I279A
The description is as above. As to conditions: 0.1 nM 125I-CXCL11, read-out: IC50 ligand binding (mean ± SEM). How it is done:
as §1, §2

The target of assay [3] is T3, D112N-CXCR3 (Homo sapiens, UniProt P49682, D112N).
T3 construct: expressed in transfected cells; host or cells: murine pre-B cell line L1.2, transient transfection
T3 sequence (P49682 1-368 D112N): T1 sequence (P49682 1-368 F131A) with D112N, A131F
The description is as above. To be noted: D112N-CXCR3 transfectants (Figure 1); read-out: IC50 for displacement of 125I-CXCL11. How it is done: as §1, §2

Assay [4] deals with T4, CXCR3 H202A (ECL2) (Homo sapiens, UniProt P49682, H202A).
T4 construct: expressed in transfected cells; host or cells: murine pre-B cell line L1.2, transient transfection
T4 sequence (P49682 1-368 H202A): T1 sequence (P49682 1-368 F131A) with A131F, H202A
The assay is described as above. To be noted: 0.1 nM 125I-CXCL11, read-out: IC50 ligand binding (mean ± SEM). The procedure: as §1, §2

For assay [5], the target named is T5, CXCR3 Y308A (Homo sapiens, UniProt P49682, Y308A).
T5 construct: expressed in transfected cells; host or cells: murine pre-B cell line L1.2, transient transfection
T5 sequence (P49682 1-368 Y308A): T1 sequence (P49682 1-368 F131A) with A131F, Y308A
The description is as above. To be noted: 0.1 nM 125I-CXCL11. How it is done: as §1, §2

In assay [6] the target is T6, CXCR3 Y60A (Homo sapiens, UniProt P49682, Y60A).
T6 construct: expressed in transfected cells; host or cells: murine pre-B cell line L1.2, transient transfection
T6 sequence (P49682 1-368 Y60A): T1 sequence (P49682 1-368 F131A) with Y60A, A131F
Described as above. To be noted: 0.1 nM 125I-CXCL11, read-out: IC50 ligand binding (mean ± SEM). How it is done: as §1, §2

The target of assay [7] is T7, WT CXCR3 (Homo sapiens, UniProt P49682).
T7 construct: expressed in transfected cells; host or cells: murine pre-B cell line L1.2, transient transfection by electroporation
T7 sequence (P49682 1-368): T1 sequence (P49682 1-368 F131A) with A131F
The assay is described as above. How it is done:
as §1, §2

Assay [8] deals with T1, CXCR3 F131A. Briefly: Chemotaxis assay, L1.2 transfectants migrating to CXCL11. The class given is cell-based. To be noted: 30 nM CXCL11. How it is done:
as §1
(§3) Assays of chemotactic responsiveness were carried out as previously described (Vaidehi et al., [2009]) using 96-well ChemoTx® plates with 5 μm pores (Neuroprobe, Gaithersburg, MD, USA). Migrating cells were detected by the use of CellTiter Glo® Dye (Promega, Southampton, UK) and resulting luminescence measured using a TopCount scintillation counter (PerkinElmer, Waltham, MA, USA). Basal migration of cells to buffer alone was subtracted from the resulting data, with individual results expressed as a percentage of the total cells applied to the filter. In all experiments, each data point was assayed in duplicate. In every experiment, cells transiently expressing WT CXCR3 were used as a positive control.

Assay [9] deals with T2, CXCR3 I279A. The assay is described as above. It counts as cell-based. As to conditions: 30 nM CXCL11. How it is done: as §1, §3
For assay [10], the target named is T4, CXCR3 H202A (ECL2). The description is as above. The class given is cell-based. As to conditions: 30 nM CXCL11, read-out: IC50 chemotaxis (mean ± SEM). How it is done:
as §1, §3

The target of assay [11] is T6, CXCR3 Y60A. Described as above. It counts as cell-based. As to conditions: 30 nM CXCL11, read-out: IC50 chemotaxis (mean ± SEM). The procedure:
as §1, §3

In assay [12] the target is T7, WT CXCR3. The assay is described as above. The class given is cell-based. The procedure:
as §1, §3

Assay [13] deals with T3, D112N-CXCR3. The assay is described as above. The class given is cell-based. To be noted: 10 nM CXCL11, read-out: IC50 for inhibition of migration. How it is done: (§4) A previously described pcDNA3 plasmid containing human wild type (WT) CXCR3 cDNA with an HA epitope tag encoded at the N terminus ([…] et al., [2008]) was used as a template for the generation of point mutants by PCR using the QuikChange II site-directed mutagenesis kit (Stratagene, Amsterdam, the Netherlands). All constructs were verified by DNA sequencing (Eurofins MWG Operon, Ebersberg, Germany) before use. L1.2 cells were transiently transfected by electroporation with 1 μg of vector DNA/10^6 cells at […], 975μF and incubated overnight in medium supplemented with 10 mM of sodium butyrate to enhance gene expression. Assays of chemotactic responsiveness were carried out as previously described ([…] et al., [2009]) using 96-well ChemoTx® plates with 5 μm pores (Neuroprobe, Gaithersburg, MD, USA). Migrating cells were detected by the use of CellTiter Glo® Dye (Promega, Southampton, UK) and resulting luminescence measured using a TopCount scintillation counter (PerkinElmer, Waltham, MA, USA). Basal migration of cells to buffer alone was subtracted from the resulting data, with individual results expressed as a percentage of the total cells applied to the filter. In all experiments, each data point was assayed in duplicate. In every experiment, cells transiently expressing WT CXCR3 were used as a positive control.

In assay [14] the target is T5, CXCR3 Y308A. Described as above. The class given is cell-based. To be noted: 30 nM CXCL11. How it is done:
as §4

SMILES strings stand for the structures. Residue numbers refer to the chain shown, from its start.

As to `CCOc1ccc(-n2c(C(C)N(Cc3cccnc3)C(=O)Cc3ccc(OC(F)(F)F)cc3)nc3ncccc3c2=O)cc1` (stereo not drawn) [VUF 10085, N-1R-[3-(4-ethoxy-phenyl)-4-oxo-3,4-dihydro-pyrido[2,3-d]pyrimidin-2-yl]-ethyl-N-pyridin-3-ylmethyl-2-(4-trifluoromethoxy-phenyl)-acetamide], the IC50 at CXCR3 F131A [1] is 0.161 ± 0.04 µM; on CXCR3 I279A [2], 0.483 ± 0.21 µM; at D112N-CXCR3 [3], 2.34 µM; at CXCR3 H202A (ECL2) [4] it was 0.299 ± 0.12 µM; at CXCR3 Y60A [6], 0.236 ± 0.054 µM; on WT CXCR3 [7] (WT CXCR3, 0.1 nM 125I-CXCL11, read-out: IC50 ligand binding (mean ± SEM)), 0.241 ± 0.027 µM. The IC50 at WT CXCR3 [7] (WT CXCR3 transfectants (Figure 1), read-out: IC50 for displacement of 125I-CXCL11) is 0.169 µM; at CXCR3 I279A [9] (I279A, read-out: IC50 chemotaxis (mean ± SEM)) it was 0.676 ± 0.028 µM; on CXCR3 H202A (ECL2) [10] it was 0.373 ± 0.014 µM; on CXCR3 Y60A [11], 0.292 ± 0.013 µM; on WT CXCR3 [12] (WT CXCR3, 30 nM CXCL11, read-out: IC50 chemotaxis (mean ± SEM)), 0.198 ± 0.035 µM; on WT CXCR3 [12] (WT CXCR3 transfectants, 10 nM CXCL11, read-out: IC50 for inhibition of migration), 0.38 µM. The IC50 on D112N-CXCR3 [13] was determined as 2.52 µM. Besides, the “IC50 ligand binding (mean ± SEM)” value on CXCR3 Y308A [5] is reported as “no IC50 value could be calculated”. Besides, the “IC50 chemotaxis (mean ± SEM)” value against CXCR3 F131A [8] and on CXCR3 Y308A [14] was “calculation of an IC50 value impossible” throughout. Also, on CXCR3 I279A [9] (I279A versus WT), the “increase in IC50 value, chemotaxis” value was “threefold”.

The record behind these values is paper PMC4376459, “CXCR3 antagonist VUF10085 binds to an intrahelical site distinct from that of the broad spectrum antagonist TAK-779” (British Journal of Pharmacology, 2015).
